In paper PMC8385015, “Tumour-on-chip microfluidic platform for assessment of drug pharmacokinetics and treatment response” (Communications Biology, 2021):

Key:
[1] = test system: SW620 spheroids; settings: static 2D or 3D, Supplementary Fig. 1
[2] = In vivo PK profile determination in mouse plasma (LC-MS/MS, population-based PK model)
[3] = male, Swiss athymic nu/nu, in vivo, 10 mg/kg

SMILES: CN(C)CCCOc1ccc(-c2ccc3ncc4c(c3c2)n(C2CCOCC2)c(=O)n4C)cn1 [AZD0156, 8-{6-[3-(Dimethylamino)propoxy]pyridin-3-yl}-3-methyl-1-(tetrahydro-2 H-pyran-4-yl)-1,3-dihydro-2 H-imidazo[4,5-c]quinolin-2-one]
- monotherapy effect on spheroid size, morphology, viability [1]: no spheroid size, morphology or viability effect
- Cmax [2, 3]: 192 nM
- concentration at 1 h [2, 3]: 188 nM
- concentration at 2 h [2, 3]: 192 nM
- concentration at 3 h [2, 3]: 174 nM
- concentration at 4 h [2, 3]: 154 nM
- concentration at 5 h [2, 3]: 137 nM
- concentration at 6 h [2, 3]: 122 nM
- concentration at 7 h [2, 3]: 108 nM
- concentration at 8 h [2, 3]: 95.6 nM
- concentration at 9 h [2, 3]: 84.7 nM
- concentration at 10 h [2, 3]: 75.2 nM
- concentration at 11 h [2, 3]: 66.7 nM
- concentration at 12 h [2, 3]: 59.1 nM
- concentration at 13 h [2, 3]: 52.7 nM
- concentration at 14 h [2, 3]: 46.6 nM
- concentration at 15 h [2, 3]: 41.5 nM
- concentration at 16 h [2, 3]: 36.7 nM
- concentration at 17 h [2, 3]: 32.6 nM
- concentration at 18 h [2, 3]: 28.8 nM
- concentration at 19 h [2, 3]: 25.7 nM
- concentration at 20 h [2, 3]: 22.7 nM
- concentration at 21 h [2, 3]: 20.2 nM
- concentration at 22 h [2, 3]: 17.8 nM
- concentration at 23 h [2, 3]: 15.9 nM
- concentration at 24 h [2, 3]: 14.1 nM
- ka ([2]; population PK model parameter, mean): 1.4 h⁻¹
